Source: article PMC3787104, “A Purine Analog Synergizes with Chloroquine (CQ) by Targeting Plasmodium falciparum Hsp90 (PfHsp90)” (PLoS ONE, 2013)

Assays:
[1] = biological target: P. falciparum Hsp90 (PfHsp90, PF07_0029) (Plasmodium falciparum, UniProt Q8IC05); assay: SPR (Biacore X), steady-state […] fit; also full-length ATPase inhibition IC50 […]; type: binding; design: gene PF3D7_0708400; full length also tested in ATPase assay
[2] = biological target: T1, P. falciparum Hsp90 (PfHsp90, PF07_0029) (Plasmodium falciparum, UniProt Q8IC05, R98K); assay: SPR (Biacore X), steady-state fit; type: binding
T1 construct: gene PF3D7_0708400

## CC(C)NCCCn1c(Sc2cc3c(cc2I)OCO3)nc2c(N)ncnc21 [PU-H71]
[1]
  Kd: 70.8 ± 0.006 µM
[2]
  Kd: 268 ± 55.7 µM
